The list shows a part of the results, in another mix than the full data. Some of these compounds have results that are not shown, active ones among them. Inconclusive results are not listed. Active and inactive are the calls of the source. The call rests on the fitted dose curve; in most records, active means well fitted inhibition curve with a large enough effect in the signal ratio, with a control signal flat (not every such curve was filed as active); inconclusive means small, poorly fitted or top-dose-only effect, or effect the other way, or a change in a side signal; inactive means flat fitted curve, though single readings scatter; the % refers to the signal ratio.
Experiment: qHTS Assay for Modulators of Lamin A Splicing
Conditions: HeLa LMNA splicing GFP/RFP minigene ratio, 48 h; at 46 µM (top of the series) unless noted
On the % scale 0 is the no-effect control and ±100 the full control effect.

Row | SMILES | ratio change, negative = inhibition
1 | CCCCOc1ccccc1C(=O)NCC1(N(C)C)CCCCC1 | inactive: -3.61%
2 | CN(C)C1CCCC1OC(=O)C(O)(c1ccccc1)c1ccccc1 (centres undefined) | inactive: -10.4% [at 46.1 µM]
3 | CCN1CCCC(OC(=O)C2(O)c3ccccc3C=Cc3ccccc32)C1 (centres undefined) | inactive: 0.0934% [at 46.1 µM]
4 | CCOc1cccc(C(=O)NCC2(N(C)C)CCCCC2)c1 | inactive: 15.7%
5 | CN(C)C1(CNC(=O)c2ccccc2F)CCCCC1 | inactive: 12.8%
6 | CC(C)N1C(=O)CC2(CCN(CCOC(=O)C(O)(c3ccccc3)c3ccccc3)CC2)C1=O | inactive: 8.6% [at 46.1 µM]
7 | CN(C)C1(CNC(=O)c2cccc(Cl)c2)CCCCC1 | inactive: 4.86%
8 | CC(C)COc1ccc(C(=O)NCC2(N(C)C)CCCCC2)cc1 | inactive: 11.1%
9 | O=C(OC1CN2CCC1CC2)C(CO)(c1ccccc1)c1ccccc1 (centres undefined) | inactive: 17.6% [at 46.1 µM]
10 | COc1cccc(C(=O)NCC2(N3CCOCC3)CCCCC2)c1 | inactive: 6.71%
11 | CN(C)c1cccc(C(=O)NCC2(N(C)C)CCCCC2)c1 | inactive: 7.5% [at 46.1 µM]
12 | CC(C)Oc1ccc(C(=O)NCC2(N(C)C)CCCCC2)cc1 | inactive: 7.44%
13 | COc1ccc(C(=O)NCC2(N(C)C)CCCCC2)cc1Cl | inactive: 15%
14 | COc1cccc(C(=O)NCC2(N3CCCCC3)CCCCC2)c1 | inactive: 8.06%

— PubChem BioAssay AID1487 (National Center for Advancing Translational Sciences (NCATS), 2009)
